Key:
human CB2 receptors = human CB2 receptors (Homo sapiens, UniProt P34972); experiment: CB2 radioligand binding assay ([3H]CP 55,940 competition), human; conditions: read-out: human CB2 binding (Ki); membranes of HEK293 cells stably expressing human CB2; 0.5 nM [3H]CP 55,940
rat CB2 receptors = rat CB2 receptors (Rattus norvegicus, UniProt Q9QZN9); experiment: CB2 radioligand binding assay ([3H]CP 55,940 competition), rat; conditions: read-out: rat CB2 binding (Ki); membranes of HEK293 cells stably expressing rat CB2; 0.5 nM [3H]CP 55,940

Chains of the proteins cited; added tags and fusions are not shown. Lines headed by an entry give the natural chain unless they say otherwise; changes in a name come on top.
UniProt P34972, whole entry, looked up: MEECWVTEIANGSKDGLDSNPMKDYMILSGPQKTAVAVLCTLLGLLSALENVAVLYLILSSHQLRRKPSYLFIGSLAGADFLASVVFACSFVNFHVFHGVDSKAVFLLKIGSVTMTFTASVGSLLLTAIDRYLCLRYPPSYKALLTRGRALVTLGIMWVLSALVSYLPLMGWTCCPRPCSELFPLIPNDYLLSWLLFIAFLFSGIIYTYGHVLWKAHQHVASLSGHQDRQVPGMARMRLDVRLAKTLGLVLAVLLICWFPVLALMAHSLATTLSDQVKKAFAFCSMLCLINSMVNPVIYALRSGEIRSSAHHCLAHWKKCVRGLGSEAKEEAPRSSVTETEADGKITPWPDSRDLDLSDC
UniProt Q9QZN9: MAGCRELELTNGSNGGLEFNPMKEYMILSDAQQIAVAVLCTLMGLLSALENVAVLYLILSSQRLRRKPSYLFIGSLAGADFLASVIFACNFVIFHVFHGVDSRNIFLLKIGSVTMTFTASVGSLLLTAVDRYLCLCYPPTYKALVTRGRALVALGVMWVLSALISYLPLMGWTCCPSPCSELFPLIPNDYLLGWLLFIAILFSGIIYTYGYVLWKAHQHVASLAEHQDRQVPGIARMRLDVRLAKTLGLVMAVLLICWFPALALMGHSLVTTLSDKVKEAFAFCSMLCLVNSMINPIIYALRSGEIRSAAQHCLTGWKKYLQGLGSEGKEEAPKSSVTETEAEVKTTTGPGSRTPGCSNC

CCCCn1/c(=N/C(=O)c2cc(C(F)(F)F)ccc2OC[C@H](C)O)sc2c(=O)n(C)ncc21 showed a Ki (human CB2 receptors) of 6.2 nM and a Ki (rat CB2 receptors) of 1.5 nM.

— US8586596B2, “Compounds as cannabinoid receptor ligands” (AbbVie Inc., priority 2010, dated 2013)
